The chains behind the UniProt entries cited, without tags or fusion partners. Residues count along the entry.
ADP-ribosylation factor GTPase-activating protein 1 (Rattus norvegicus), Q62848, UniProt Q62848, whole entry, looked up: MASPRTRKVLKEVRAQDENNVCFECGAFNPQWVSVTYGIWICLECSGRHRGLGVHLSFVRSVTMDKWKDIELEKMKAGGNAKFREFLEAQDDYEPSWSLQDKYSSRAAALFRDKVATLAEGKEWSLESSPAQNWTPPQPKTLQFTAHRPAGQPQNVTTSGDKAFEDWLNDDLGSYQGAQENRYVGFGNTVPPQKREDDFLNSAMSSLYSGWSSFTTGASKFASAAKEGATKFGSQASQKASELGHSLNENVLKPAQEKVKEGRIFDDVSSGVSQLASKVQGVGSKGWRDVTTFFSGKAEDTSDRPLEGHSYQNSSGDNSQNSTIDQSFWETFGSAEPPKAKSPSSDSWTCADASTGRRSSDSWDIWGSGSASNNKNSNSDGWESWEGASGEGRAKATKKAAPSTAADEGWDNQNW
ADP-ribosylation factor GTPase-activating protein 1 (Rattus norvegicus), Q62848, UniProt Q62848, 1-136 limits assumed: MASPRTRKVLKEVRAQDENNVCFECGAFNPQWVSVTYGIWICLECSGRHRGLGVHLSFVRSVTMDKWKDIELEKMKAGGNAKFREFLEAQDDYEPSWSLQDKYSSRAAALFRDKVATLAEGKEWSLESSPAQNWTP
Melanocortin receptor 4 (Homo sapiens), P32245, UniProt P32245, whole entry, looked up: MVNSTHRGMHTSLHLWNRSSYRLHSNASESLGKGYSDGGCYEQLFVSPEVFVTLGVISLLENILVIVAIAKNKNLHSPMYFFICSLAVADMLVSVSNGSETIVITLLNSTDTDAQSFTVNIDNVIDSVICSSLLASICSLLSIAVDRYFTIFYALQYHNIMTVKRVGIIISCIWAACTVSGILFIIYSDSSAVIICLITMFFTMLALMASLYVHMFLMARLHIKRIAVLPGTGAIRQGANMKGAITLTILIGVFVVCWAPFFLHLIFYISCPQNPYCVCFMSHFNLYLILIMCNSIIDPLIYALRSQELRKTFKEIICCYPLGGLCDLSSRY
Neuropilin-1 (Homo sapiens), O14786, UniProt O14786, whole entry, looked up: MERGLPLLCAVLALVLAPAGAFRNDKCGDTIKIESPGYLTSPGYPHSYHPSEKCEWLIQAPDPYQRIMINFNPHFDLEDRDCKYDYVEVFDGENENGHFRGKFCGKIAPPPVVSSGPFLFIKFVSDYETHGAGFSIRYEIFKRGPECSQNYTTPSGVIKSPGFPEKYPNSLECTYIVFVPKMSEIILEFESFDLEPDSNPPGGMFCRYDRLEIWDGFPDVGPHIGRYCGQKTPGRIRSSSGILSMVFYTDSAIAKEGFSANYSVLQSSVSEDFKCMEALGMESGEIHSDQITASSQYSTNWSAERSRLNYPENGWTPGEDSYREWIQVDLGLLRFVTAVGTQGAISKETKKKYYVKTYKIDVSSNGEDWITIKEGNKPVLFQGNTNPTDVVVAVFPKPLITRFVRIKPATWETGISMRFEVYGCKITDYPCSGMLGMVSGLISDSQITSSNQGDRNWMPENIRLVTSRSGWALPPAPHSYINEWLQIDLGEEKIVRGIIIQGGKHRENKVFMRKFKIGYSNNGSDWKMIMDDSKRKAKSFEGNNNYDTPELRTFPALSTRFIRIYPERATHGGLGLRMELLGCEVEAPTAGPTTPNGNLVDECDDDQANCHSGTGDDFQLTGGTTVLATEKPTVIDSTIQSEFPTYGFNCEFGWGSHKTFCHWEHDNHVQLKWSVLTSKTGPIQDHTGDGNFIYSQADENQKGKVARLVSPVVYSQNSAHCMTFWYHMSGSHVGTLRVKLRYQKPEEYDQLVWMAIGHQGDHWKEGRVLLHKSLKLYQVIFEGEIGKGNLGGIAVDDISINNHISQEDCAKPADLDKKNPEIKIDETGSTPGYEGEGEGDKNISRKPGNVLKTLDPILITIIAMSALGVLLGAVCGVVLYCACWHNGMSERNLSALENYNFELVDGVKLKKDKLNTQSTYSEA

# Screens: PubChem BioAssay, several laboratories
# ARFGAP1 inhibitor – inhibitors of rat ARFGAP1 GAP activity, primary screen, biochemical, fluorescence polarization, GDP tracer. ADP-ribosylation factor GTPase-activating protein 1 (Rattus norvegicus), Q62848. Arfgap1-stimulated ARF1 GTP hydrolysis, GDP FP detection. inhibition, % at 16.5 µM. actives 0.26% (n = 360,000);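 active = inhibition above a per-plate limit, mean inhibition of low control wells plus 3 SD, cut at about 25% in these data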;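 note: 0% = DMSO wells with enzyme and 100% = wells lacking Arfgap1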
#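 System: truncated rat Arfgap1 GAP domain / Benchmarks: high control wells lacking Arfgap1, low control full reaction with DMSO / Times: compound-enzyme preincubation 20 min, reaction 120 min, detection 60 min, 25 °C / Repeats: one replicate per compound / Also added: human ARF1(Δ1-17)-GTP substrate / Measured by: Tracer-displacement fluorescence polarization with EDTA stop, 620/688 nm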
# MC4R barr agon – MC4R agonists recruiting beta-arrestin, primary screen, cell-based, luminescence, agonist arm of biased-ligand search | Melanocortin receptor 4 (Homo sapiens), P32245 | U2OS MC4R beta-arrestin complementation; percent of melanotan II response, DMSO zero | activation, % at 8.9 µM | actives 0.98% (n = 360,000);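 active = activation above a per-plate cutoff, the mean activation of sample wells on that plate plus 3 SD, cut at about 8% in these data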
# CendR NRP1 mod – modulators of CendR peptide binding to NRP-1, primary screen, biochemical, fluorescence polarization, uHTS; Neuropilin-1 (Homo sapiens), O14786; FAM-RPARPAR peptide binding to NRP-1; inhibition, % at 25 µM; actives 0.85% (n = 360,000);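 active = inhibition or corrected inhibition above about 18%, plus a signal ratio from 0.5 to 1.5, limit read from the data, passing the limit was not always enough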
# Yeast UUG start – modulators of yeast start codon fidelity, primary screen, whole organism, S. cerevisiae, single point, plate reader; S. cerevisiae UUG-firefly luciferase reporter, luminescence/redox ratio; activity score, % at 18.7 µM; actives 0.13% (n = 350,000);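 active means replicate mean at a twofold rise or more, about +100% in these data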;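 further: firefly luciferase made from a UUG start codon reports start codon fidelity; reporter light over untreated wells divided by growth signal over untreated wells; some hits fall short of that in this replicate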
# ASAP1 GAP inh – inhibitors of human ASAP1 ArfGAP activity, primary screen, biochemical, fluorescence polarization; ASAP1-stimulated ARF1 GTP hydrolysis, GDP FP detection; inhibition, % at 16.5 µM; actives 0.19% (n = 360,000); AID 624377, 2012; in the data active = inhibition above about 25%;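 note: 0% = vehicle with enzyme and substrate and 100% = no enzyme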
# MC4R antag cAMP – MC4R antagonists of cAMP signaling, primary screen, cell-based, TR-FRET, antagonist arm of biased-ligand search. Melanocortin receptor 4 (Homo sapiens), P32245. MC4R-expressing cells, MTII-stimulated cAMP, LANCE TR-FRET. inhibition, % at 6.5 µM. actives 0.48% (n = 360,000). AID 540295, 2011;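 active = inhibition above its plate's cutoff, the mean of tested wells on that plate plus 3 SD, cut at about 29% in these data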;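 note: 0% = Melanotan II alone and 100% = Melanotan II plus saturating MCL0020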
#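 Material: U2OS-MC4R stable cell line | Reagent: Melanotan II challenge after compound preincubation | Doses: One concentration, 6.5 µM nominal | Incubation: 30-min compound preincubation, 1-h Melanotan II challenge, 1-h detection, room temperature | Signal: TR-FRET cAMP assay | Replicates: One well per compound, no replicates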
# MC4R barr conf – MC4R beta-arrestin agonists, retest, confirmation, cell-based, luminescence, U2OS; actives 31% (n = 2,400); activation, % at 8.9 µM; AID 602192, 2012; shares compounds with MC4R barr agon; U2OS MC4R beta-arrestin recruitment; scaled DMSO 0%, Melanotan II 100%;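 active = mean activation across replicates above the hit cutoff set in the earlier primary screen, cut at about 8% in these data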
# MOR DOR agonist – agonists of MOR-DOR heterodimerization, counter-screen for MC4R biased agonist project, cell-based, luminescence; shares compounds with MC4R barr agon; U2OS PathHunter beta-arrestin, beta-gal luminescence; percent of deltorphin B response, DMSO zero; actives 5.8% (n = 2,400); activation, % at 9.2 µM; AID 602194, 2012;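 active = mean activation across replicates exceeds the hit threshold derived in the earlier primary screen, cut at about 18% in these data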;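 note: 100% = deltorphin B at 0.9 µM final and 0% = DMSO alone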
# The depositor's hits bear a star; nt = not tested or not shown. Rows were chosen to be rich in hits. Some 2.3% of all compounds tested hit in one or more screens of this group.
# Codes: A = ARFGAP1 inhibitor; B = MC4R barr agon; C = CendR NRP1 mod; D = Yeast UUG start; E = ASAP1 GAP inh; F = MC4R antag cAMP; G = MC4R barr conf; H = MOR DOR agonist
> C[C@@H]1CCCCO[C@H](CN(C)S(=O)(=O)c2cn(C)cn2)[C@@H](C)CN([C@H](C)CO)C(=O)c2cc(NC(=O)Nc3ccc4c(c3)OCO4)ccc2O1
  A: nt	B: nt	C: nt	D: 8	E: nt	F: nt	G: nt	H: nt

> CCOC(=O)c1c(N)c2cc([N+](=O)[O-])ccc2n1C
  A: -2	B: 16*	C: 8	D: -6	E: -2	F: -15	G: 5	H: 5

> C[C@@H]1CCCCO[C@@H](CN(C)S(=O)(=O)c2ccccc2)[C@@H](C)CN([C@H](C)CO)C(=O)c2cc(NC(=O)C3CCCCC3)ccc2O1
  A: nt	B: nt	C: nt	D: -4	E: nt	F: nt	G: nt	H: nt

> Cc1nn(-c2ccccc2)c2sc(C(=O)NNC(=O)COc3cccc4ccccc34)cc12
  A: 6	B: 25*	C: 0	D: -20	E: -12	F: 4	G: 6	H: 4

> Cc1cc(C)c2oc(C(=O)Nc3ccc(S(=O)(=O)Nc4nccs4)cc3)cc(=O)c2c1
  A: -10	B: -2	C: -14	D: nt	E: -1	F: 20	G: nt	H: nt

> Cc1cc2oc(C(=O)Nc3ccc(S(=O)(=O)Nc4nccs4)cc3)cc(=O)c2cc1Cl
  A: 0	B: 9.7*	C: -52	D: nt	E: 16	F: 6	G: -2	H: 2

> COc1cccc2cc(C(N)=O)oc12
  A: -5	B: -2	C: -16	D: nt	E: 7	F: 12	G: nt	H: nt

> COc1cccc2cc(C(=O)c3ccc([N+](=O)[O-])cc3)oc12
  A: 3	B: 20*	C: -8	D: nt	E: -1	F: 5	G: 0	H: 6

> C[C@H](O)C#Cc1cnc2c(c1)C(=O)N([C@@H](C)CO)C[C@@H](C)[C@H](CN(C)C(=O)c1ccccc1)O2
  A: nt	B: nt	C: nt	D: -5	E: nt	F: nt	G: nt	H: nt

> Cc1ccc(C)c(OCc2ccc(C(=O)Nc3ccc([N+](=O)[O-])cn3)o2)c1
  A: 0	B: 16*	C: -7	D: 7	E: 7	F: 4	G: -1	H: 5

> Cc1ccc(C)c(OCc2ccc(C(=O)NN)o2)c1
  A: -8	B: 15*	C: 2	D: nt	E: 17	F: 5	G: -3	H: 2

> CCCNC(=O)N1C[C@H]2[C@@H](c3ccccc31)[C@H](CO)N2CC1CCCCC1
  A: nt	B: nt	C: nt	D: 1	E: nt	F: nt	G: nt	H: nt

> S=C(NCCCCN(Cc1ccc(Cl)cc1)c1ccc(Br)cn1)NCCCc1cnc[nH]1
  A: 18	B: 10*	C: -16	D: -19	E: 12	F: 6	G: 11*	H: 7

> O=C(Nc1cnn(Cc2ccc(Cl)cc2Cl)c1)c1noc2c1CCCC2
  A: 3	B: 3	C: -3	D: -7	E: 4	F: 4	G: nt	H: nt

> O=C(Nc1cnn(Cc2ccc(Cl)cc2Cl)c1)c1cc(-c2cccs2)on1
  A: 9	B: 21*	C: 3	D: nt	E: -4	F: -1	G: 2	H: 4

# 3 entries from above, ordered by SMILES length, high to low.
# Codes: A = ARFGAP1 inhibitor; B = MC4R barr agon; C = CendR NRP1 mod; D = Yeast UUG start; E = ASAP1 GAP inh; F = MC4R antag cAMP; G = MC4R barr conf; H = MOR DOR agonist
> Cc1ccc(C)c(OCc2ccc(C(=O)Nc3ccc([N+](=O)[O-])cn3)o2)c1
  A: 0	B: 16*	C: -7	D: 7	E: 7	F: 4	G: -1	H: 5

> S=C(NCCCCN(Cc1ccc(Cl)cc1)c1ccc(Br)cn1)NCCCc1cnc[nH]1
  A: 18	B: 10*	C: -16	D: -19	E: 12	F: 6	G: 11*	H: 7

> O=C(Nc1cnn(Cc2ccc(Cl)cc2Cl)c1)c1noc2c1CCCC2
  A: 3	B: 3	C: -3	D: -7	E: 4	F: 4	G: nt	H: nt

# Next records
# Codes: A = ARFGAP1 inhibitor; B = MC4R barr agon; C = CendR NRP1 mod; D = Yeast UUG start; E = ASAP1 GAP inh; F = MC4R antag cAMP; G = MC4R barr conf; H = MOR DOR agonist
> Cc1cc(NC(=O)c2cccs2)n(-c2nc3ccccc3[nH]2)n1
  A: 2	B: 12*	C: -11	D: nt	E: 1	F: 4	G: -1	H: 2

> Cc1cc(NC(=O)c2sccc2C)n(-c2nc3ccccc3[nH]2)n1
  A: -5	B: -1	C: -4	D: -20	E: 0	F: -15	G: nt	H: nt

> C[C@@H]1CN([C@@H](C)CO)C(=O)c2cc(C#C[C@@H](C)O)cnc2O[C@@H]1CN(C)Cc1ccc(-c2ccccc2)cc1
  A: nt	B: nt	C: nt	D: 6	E: nt	F: nt	G: nt	H: nt

> CCCc1cc(=O)oc2cc3oc(C)c(C)c3cc12
  A: 7	B: 13*	C: 10	D: -33	E: 2	F: 9	G: 4	H: 5
